Measured values from patent publication US9320722B2, “Regulators of aldehyde dehydrogenase ALDH3A1 and related therapeutic methods” (Indiana University Research and Technology Corporation, priority 2013, dated 2016).

The chains behind the UniProt entries cited, without tags or fusion partners. Residues count along the entry.
UniProt P05091, 18-517 limits assumed: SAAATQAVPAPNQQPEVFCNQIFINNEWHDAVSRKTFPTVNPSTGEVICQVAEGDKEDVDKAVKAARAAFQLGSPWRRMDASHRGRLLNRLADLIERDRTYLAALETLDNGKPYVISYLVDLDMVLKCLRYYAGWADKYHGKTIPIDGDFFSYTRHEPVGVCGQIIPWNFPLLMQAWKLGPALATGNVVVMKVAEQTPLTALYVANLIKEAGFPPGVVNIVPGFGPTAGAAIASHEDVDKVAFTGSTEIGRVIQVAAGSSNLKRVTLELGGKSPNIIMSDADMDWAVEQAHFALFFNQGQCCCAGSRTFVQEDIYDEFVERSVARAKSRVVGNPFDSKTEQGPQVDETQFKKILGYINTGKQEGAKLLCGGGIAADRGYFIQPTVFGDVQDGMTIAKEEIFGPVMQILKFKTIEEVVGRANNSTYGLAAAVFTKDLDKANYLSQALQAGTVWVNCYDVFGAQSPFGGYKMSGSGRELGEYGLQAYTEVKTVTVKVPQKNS
UniProt P00352, whole entry: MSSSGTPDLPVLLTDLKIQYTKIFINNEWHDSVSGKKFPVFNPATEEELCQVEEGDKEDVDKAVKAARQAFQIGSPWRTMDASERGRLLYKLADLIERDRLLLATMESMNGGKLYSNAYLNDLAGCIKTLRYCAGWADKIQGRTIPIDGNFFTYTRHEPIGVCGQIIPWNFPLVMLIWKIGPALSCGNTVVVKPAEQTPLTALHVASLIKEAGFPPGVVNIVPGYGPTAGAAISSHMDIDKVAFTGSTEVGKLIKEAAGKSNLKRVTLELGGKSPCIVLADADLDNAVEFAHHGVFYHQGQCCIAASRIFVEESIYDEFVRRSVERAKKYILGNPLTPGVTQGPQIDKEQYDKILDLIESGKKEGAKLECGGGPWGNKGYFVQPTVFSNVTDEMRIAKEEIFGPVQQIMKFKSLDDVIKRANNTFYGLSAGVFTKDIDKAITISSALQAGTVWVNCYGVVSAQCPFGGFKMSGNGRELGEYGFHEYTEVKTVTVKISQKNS
UniProt P30838, whole entry: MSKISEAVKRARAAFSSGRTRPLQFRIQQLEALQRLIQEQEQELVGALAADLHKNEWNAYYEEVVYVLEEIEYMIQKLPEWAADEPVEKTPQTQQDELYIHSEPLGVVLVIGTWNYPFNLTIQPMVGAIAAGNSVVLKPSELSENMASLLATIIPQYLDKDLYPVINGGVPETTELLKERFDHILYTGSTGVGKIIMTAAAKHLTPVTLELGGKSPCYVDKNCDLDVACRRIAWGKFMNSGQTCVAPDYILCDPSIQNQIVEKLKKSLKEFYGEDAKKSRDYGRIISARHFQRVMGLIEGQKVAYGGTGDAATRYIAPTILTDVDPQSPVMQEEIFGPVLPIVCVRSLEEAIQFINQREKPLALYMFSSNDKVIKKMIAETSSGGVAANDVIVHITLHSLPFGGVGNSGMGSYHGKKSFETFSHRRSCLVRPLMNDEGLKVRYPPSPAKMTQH

Key:
ALDH2 = ALDH2 (Homo sapiens (Human), UniProt P05091); assay: ALDH2 dehydrogenase activity / IC50 determination (propionaldehyde substrate); assay type: biochemical; details: for IC50 (micromolar) ALDH2: Tables 1A/1B, propionaldehyde substrate, S.D. in parentheses; for inhibitory potential toward ALDH2 activity in vitro (in words): CB29 analogs
ALDH1A1 = ALDH1A1 (Homo sapiens (Human), UniProt P00352); assay: ALDH1A1 dehydrogenase activity / IC50 determination (propionaldehyde substrate); assay type: biochemical; details: for IC50 (micromolar) ALDH1A1: Tables 1A/1B, propionaldehyde substrate, S.D. in parentheses; for inhibitory potential / activity toward ALDH1A1 in vitro (in words): CB29 analogs
A549 cells = details: FIG. 4A; for sensitivity to mafosfamide on co-treatment (in words), A549: 50 μM inhibitor + mafosfamide; for effect on cell proliferation as single agent (in words), A549: 50 μM inhibitor
Solubility = assay type: physicochemical; details: for concentration of homogenous solution easily formed: in the presence of […] DMSO
SF767 cells = details: for sensitivity to mafosfamide on co-treatment (in words), SF767: 50 μM inhibitor + 125 μM mafosfamide; for sensitivity to mafosfamide on co-treatment (in words), SF767 / effect on cell proliferation as single agent (in words), SF767: FIG. 4B; for effect on cell proliferation as single agent (in words), SF767: 50 μM inhibitor; for dose dependence of mafosfamide sensitization (in words), SF767: increasing inhibitor concentration, 125 μM mafosfamide, FIG. 5A
ALDH3A1 = ALDH3A1 (Homo sapiens (Human), UniProt P30838); details: benzaldehyde substrate
[1] = Table 6, SAR of CB7 analogs, tested up to 100 μM

Row | SMILES | IC50 (micromolar) ALDH2 (ALDH2) | IC50 (micromolar) ALDH1A1 (ALDH1A1) | inhibitory potential toward ALDH2 activity in vitro (in words) (ALDH2) | sensitivity to mafosfamide on co-treatment (in words), A549 (A549 cells) | effect on cell proliferation as single agent (in words), A549 (A549 cells) | concentration of homogenous solution easily formed (Solubility) [µM] | inhibitory potential / activity toward ALDH1A1 in vitro (in words) (ALDH1A1) | sensitivity to mafosfamide on co-treatment (in words), SF767 (SF767 cells) | effect on cell proliferation as single agent (in words), SF767 (SF767 cells) | also measured
1 | CC(=O)Nc1ccc(Oc2ccc(S(=O)(=O)C(F)(F)F)cc2[N+](=O)[O-])cc1 | NI | NI |  |  |  |  |  |  |  | 
2 | CC(C)NS(=O)(=O)c1ccc(Nc2ccc3c(c2)CCC3)c([N+](=O)[O-])c1 | NI | NI | no inhibitory potential | increased sensitivity to mafosfamide | little effect on cell proliferation | ≥ 100 | no inhibitory potential | increased sensitivity to mafosfamide | little effect on cell proliferation | ED50 value of mafosfamide in the presence of inhibitor, SF767 (SF767 cells): 108 ± 6 µM; dose dependence of mafosfamide sensitization (in words), SF767 (SF767 cells): dose-dependent enhancement in mafosfamide sensitivity
3 | CS(=O)(=O)c1ccc(Nc2ccc(NCC3CCCC3)cc2)c(S(C)(=O)=O)c1 | NI |  |  |  |  |  |  |  |  | lower solubility compared with CB29 (Solubility; methyl sulfonyl instead of nitro at R3): more than 5 fold
4 | CNS(=O)(=O)c1ccc(Nc2ccc(NC(=O)CC(C)C)cc2)c([N+](=O)[O-])c1 | NI |  |  |  |  |  |  |  |  | 
5 | CS(=O)(=O)c1ccc(Nc2ccc3c(c2)CCC3)c([N+](=O)[O-])c1 | NI | NI | no inhibitory potential | increased sensitivity to mafosfamide | little effect on cell proliferation | ≥ 100 | no inhibitory potential | increased sensitivity to mafosfamide | little effect on cell proliferation | 
6 | CN(C)c1ccc(Nc2ccc(S(=O)(=O)C(F)(F)F)cc2[N+](=O)[O-])cc1 | WA (WA represents (30-50) % activation shown by 100 μM compound to respective enzymes) | NI |  |  |  |  |  |  |  | 
7 | O=S(=O)(c1ccc(Cl)cc1)n1c(N2CCCCC2)nc2ccccc21 |  |  |  |  |  |  |  |  |  | ALDH2 (ALDH2; [1]): NI; ALDH1A1 (ALDH1A1; [1]): NI
8 | CC(C)NS(=O)(=O)c1ccc(NC2CCN(CC(=O)Nc3ccccc3)CC2)c([N+](=O)[O-])c1 | NI | NI | no inhibitory potential | increased sensitivity to mafosfamide | little effect on cell proliferation | ≥ 100 | no inhibitory potential | increased sensitivity to mafosfamide | little effect on cell proliferation | ED50 value of mafosfamide in the presence of inhibitor, SF767 (SF767 cells): 94 ± 5 µM; dose dependence of mafosfamide sensitization (in words), SF767 (SF767 cells): dose-dependent enhancement in mafosfamide sensitivity
9 | CC(Nc1ccc(S(C)(=O)=O)cc1[N+](=O)[O-])C(=O)O (centres unmarked) | NI |  |  |  |  |  |  |  |  | IC50 (micromolar) ALDH3A1 (ALDH3A1; Tables 1A/1B, S.D. for three assays in parentheses): NI; IC50 against ALDH3A1 (ALDH3A1): NI
10 | CC(C)C(=O)Nc1ccc(Nc2ccc(S(C)(=O)=O)cc2[N+](=O)[O-])cc1 | NI |  |  |  |  |  |  |  |  | 
